Patent US20230144211A1, “ANTIFOLATE LINKER-DRUGS AND ANTIBODY-DRUG CONJUGATES” (Byondis B.V., priority 2020, published 2023)

What was measured:
Assay in all cases: In vitro cell viability assay (CellTiter-Glo, 6 days)
SK-BR-3 cells = assay type: cell-based; settings: ADCs; HER2-positive SK-BR-3 human tumor cell line
Method: (§1) FaDu, BxPC-3, HeLa, MV4-11, and RAJI cell lines were obtained from Deutsche Sammlung von Mikroorganismen und Zellkulturen (Leipzig, Germany). Jurkat NucLight Red cells were obtained from Essen BioScience Inc. (Ann Arbor, Mich., USA). SK-BR-3 and SK-OV-3 cells were cultured in McCoys 5A medium (Lonza; Walkersville, Md., USA) supplemented with 10% v/w Fetal Bovine Serum (FBS), Heat-inactivated (HI) (Gibco-Life Technologies; Carlsbad, Calif.) and 80 U/mL Pen/Strep (Gibco-Life Technologies), at 37° C. in a humidified incubator under 5% CO2 atmosphere. SW-620 cells were similarly maintained in RPMI 1640 medium (Lonza), containing 10% v/w FBS HI and 80 U/mL Pen/Strep. A-549 cells were similarly maintained in F-12K Nutrient Mixture (1×) (Gibco-Life Technologies) media supplemented with 80 U/mL Pen/Strep and 5% v/w FBS, which was Qualified (Q) (Gibco-Life Technologies). BT-474 and AU-565 cells were similarly maintained in RPMI 1640 medium (Lonza), containing 10% v/w FBS, which was Qualified (Q) (Gibco-Life Technologies), and 80 U/mL Pen/Strep. […] Jurkat NucLight Red cells were similarly maintained in RPMI 1640 medium (Lonza), containing 10% v/w FBS HI, 80 U/mL Pen/Strep and 0.5 μg/mL Puromycin (Gibco-Life Technologies). FaDu cells were cultured in EMEM medium (Lonza) supplemented with 10% v/w FBS HI (Gibco-Life Technologies), 1× GlutaMAX (Gibco-Life Technologies), and 80 U/mL Pen/Strep (Gibco-Life Technologies), at 37° C. in a humidified incubator under 5% CO2 atmosphere.
(§2) After an overnight incubation, 10 serial log 10 dilutions of the free drugs were made in DMSO (Sigma-Aldrich). These free drug dose-response curves were 10-times further diluted in complete growth medium. For the ADCs according to the invention 10 serial log 10 dilutions were made in complete growth medium. 10 μL of a composition comprising a free drug or an ADC according to the invention was added to the assay plate (final DMSO content for free drugs was 1%). […] […] Percentage cell survival was calculated by dividing the measured luminescence for each free drug or ADC according to the concentration with the average mean of untreated cells (1% or 0.1% DMSO control (for free drugs) or 100% complete growth medium (for ADCs)) multiplied by 100.
(§3) Curves were fitted by non-linear regression using the sigmoidal dose-response equation with variable slope (four parameters) using curve-fitting software (GraphPad Prism, version 9.4.0 for Windows, GraphPad, San Diego, Calif. or Electronic Laboratory Notebook (ELN) add-in BioAssay, version 19.1.0.0218, Perkin Elmer, Waltham, Mass.). Relative IC50 values were calculated as the concentration that gives a response halfway between bottom and top of the curve, when using a 4-parameter logistic fit. Data were reported as mean IC50 value of at least one experiment performed in duplicate.

SW-620 cells = assay type: cell-based, human; settings: antifolate ADCs, Table 3a; HER2-negative cell line
Method: (§4) Human tumor cell lines SK-BR-3, SW-620, A-549, BT-474, Jurkat Clone E6-1, AU-565, and SK-OV-3 were obtained from American Type Culture Collection (Rockville, Md., USA). FaDu, BxPC-3, HeLa, MV4-11, and RAJI cell lines were obtained from Deutsche Sammlung von Mikroorganismen und Zellkulturen (Leipzig, Germany). Jurkat NucLight Red cells were obtained from Essen BioScience Inc. (Ann Arbor, Mich., USA). SK-BR-3 and SK-OV-3 cells were cultured in McCoys 5A medium (Lonza; Walkersville, Md., USA) supplemented with 10% v/w Fetal Bovine Serum (FBS), Heat-inactivated (HI) (Gibco-Life Technologies; Carlsbad, Calif.) and 80 U/mL Pen/Strep (Gibco-Life Technologies), at 37° C. in a humidified incubator under 5% CO2 atmosphere. SW-620 cells were similarly maintained in RPMI 1640 medium (Lonza), containing 10% v/w FBS HI and 80 U/mL Pen/Strep. A-549 cells were similarly maintained in F-12K Nutrient Mixture (1×) (Gibco-Life Technologies) media supplemented with 80 U/mL Pen/Strep and 5% v/w FBS, which was Qualified (Q) (Gibco-Life Technologies). BT-474 and AU-565 cells were similarly maintained in RPMI 1640 medium (Lonza), containing 10% v/w FBS, which was Qualified (Q) (Gibco-Life Technologies), and 80 U/mL Pen/Strep. Jurkat Clone E6-1, BxPC-3, HeLa, MV4-11, and RAJI cells were similarly maintained in RPMI 1640 medium (Lonza), containing 10% v/w FBS HI and 80 U/mL Pen/Strep. Jurkat NucLight Red cells were similarly maintained in RPMI 1640 medium (Lonza), containing 10% v/w FBS HI, 80 U/mL Pen/Strep and 0.5 μg/mL Puromycin (Gibco-Life Technologies). FaDu cells were cultured in EMEM medium (Lonza) supplemented with 10% v/w FBS HI (Gibco-Life Technologies), 1× GlutaMAX (Gibco-Life Technologies), and 80 U/mL Pen/Strep (Gibco-Life Technologies), at 37° C. in a humidified incubator under 5% CO2 atmosphere.
(§5) Cells in complete growth medium were plated in 96-well plates (90 μL/well) and incubated at 37° C., 5% CO2 at the following cell densities: 6500 SK-BR-3, 4000 SW-620, 2500 A-549, 10000 BT-474, 3000 Jurkat Clone E6-1, 5000 AU-565, 1250 FaDu, 1250 BxPC-3, 1000 HeLa, 7500 MV4-11, 1000 RAJI, 3000 Jurkat NucLight Red, and 4000 SK-OV-3 cells per well. After an overnight incubation, 10 serial log 10 dilutions of the free drugs were made in DMSO (Sigma-Aldrich). These free drug dose-response curves were 10-times further diluted in complete growth medium. For the ADCs according to the invention 10 serial log 10 dilutions were made in complete growth medium. 10 μL of a composition comprising a free drug or an ADC according to the invention was added to the assay plate (final DMSO content for free drugs was 1%). […] Cell viability was assessed after 6 days using a luminescent assay kit (CellTiter-Glo™ (CTG), Promega Corporation) according to the manufacturer's instructions. Percentage cell survival was calculated by dividing the measured luminescence for each free drug or ADC according to the concentration with the average mean of untreated cells (1% or 0.1% DMSO control (for free drugs) or 100% complete growth medium (for ADCs)) multiplied by 100.
as §3

AU-565 cells = assay type: cell-based, human; settings: antifolate ADCs
Method: as §1, §2, §3

[1] = test system: Jurkat NucLight Red cells; assay type: cell-based, human; settings: antifolate ADCs, Table 3d; for Jurkat NucLight Red cells IC50 (μg/mL): # no full dose-response curve; for Jurkat NucLight Red cells Efficacy (%): from minimum % viability at highest concentration
Method: as §4, §5, §3

BxPC-3 cells = assay type: cell-based, human; settings: antifolate ADCs, Table 3c; # no full dose-response curve
Method: as §1, §2, §3

FaDu cells = assay type: cell-based, human; settings: antifolate ADCs, Table 3c; # no full dose-response curve
Method: as §1, §2, §3

SK-OV-3 cells = assay type: cell-based, human; settings: antifolate ADCs
Method: FaDu, BxPC-3, HeLa, MV4-11, and RAJI cell lines were obtained from Deutsche Sammlung von Mikroorganismen und Zellkulturen (Leipzig, Germany). Jurkat NucLight Red cells were obtained from Essen BioScience Inc. (Ann Arbor, Mich., USA). SK-BR-3 and SK-OV-3 cells were cultured in McCoys 5A medium (Lonza; Walkersville, Md., USA) supplemented with 10% v/w Fetal Bovine Serum (FBS), Heat-inactivated (HI) (Gibco-Life Technologies; Carlsbad, Calif.) and 80 U/mL Pen/Strep (Gibco-Life Technologies), at 37° C. in a humidified incubator under 5% CO2 atmosphere. SW-620 cells were similarly maintained in RPMI 1640 medium (Lonza), containing 10% v/w FBS HI and 80 U/mL Pen/Strep. A-549 cells were similarly maintained in F-12K Nutrient Mixture (1×) (Gibco-Life Technologies) media supplemented with 80 U/mL Pen/Strep and 5% v/w FBS, which was Qualified (Q) (Gibco-Life Technologies). BT-474 and AU-565 cells were similarly maintained in RPMI 1640 medium (Lonza), containing 10% v/w FBS, which was Qualified (Q) (Gibco-Life Technologies), and 80 U/mL Pen/Strep. […]
After an overnight incubation, 10 serial log 10 dilutions of the free drugs were made in DMSO (Sigma-Aldrich). […] Cell viability was assessed after 6 days using a luminescent assay kit (CellTiter-Glo™ (CTG), Promega Corporation) according to the manufacturer's instructions. Percentage cell survival was calculated by dividing the measured luminescence for each free drug or ADC according to the concentration with the average mean of untreated cells (1% or 0.1% DMSO control (for free drugs) or 100% complete growth medium (for ADCs)) multiplied by 100.
Curves were fitted by non-linear regression using the sigmoidal dose-response equation with variable slope (four parameters) using curve-fitting software (GraphPad Prism, version 9.4.0 for Windows, GraphPad, San Diego, Calif. or Electronic Laboratory Notebook (ELN) add-in BioAssay, version 19.1.0.0218, Perkin Elmer, Waltham, Mass.). Relative IC50 values were calculated as the concentration that gives a response halfway between bottom and top of the curve, when using a 4-parameter logistic fit. […]

Substance | cytotoxicity in SK-BR-3 cells, comparison in words (SK-BR-3 cells) | SW-620 cells Efficacy (%) (SW-620 cells) | SW-620 cells IC50 (SW-620 cells) [µg/mL] | also measured
trastuzumab conjugates with XT162 | more active |  |  | 
Trastuzumab conjugate DAR8-XT31/XT32 wild-type conjugation |  | 0 | >10 | 
Trastuzumab conjugate DAR8-XJ9 wild-type conjugation |  |  |  | AU-565 cells IC50 (AU-565 cells; Table 3b, $ steep hillslope): 0.032 µg/mL
Trastuzumab conjugate DAR8-XT94 wild-type conjugation | more active |  |  | AU-565 cells IC50 (μg/mL) (AU-565 cells; Table 3b, $ steep hillslope): ~0.027^$ μg/mL
Trastuzumab conjugate DAR8-XT46 wild-type conjugation | somewhat less active | 0 | >10 | 
Trastuzumab conjugate DAR2-XT17 wild-type conjugation |  | 0 | >10 | 
Trastuzumab conjugate DAR8-XT114 wild-type conjugation | more active |  |  | AU-565 cells IC50 (AU-565 cells; Table 3b, later experiment, direct comparison between DAR8-XX23 and DAR8-XT114): 0.008 µg/mL
Trastuzumab conjugate DAR8-XR12 wild-type conjugation | somewhat less active |  |  | 
Trastuzumab conjugate DAR8-XR4 wild-type conjugation |  | 0 | >10 | 
Trastuzumab conjugate DAR4-XT17 wild-type conjugation |  | 0 | >10 | 
Trastuzumab conjugate DAR8-XR16 wild-type conjugation | more active |  |  | 
Trastuzumab conjugate DAR8-XT97 wild-type conjugation |  |  |  | AU-565 cells IC50 (AU-565 cells; Table 3b, $ steep hillslope): 0.042 µg/mL
Trastuzumab conjugate DAR8-XX23 wild-type conjugation | more active |  |  | 
Trastuzumab conjugate DAR8-XR162 wild-type conjugation |  |  |  | Jurkat NucLight Red cells IC50 (μg/mL) [1]: >10^# μg/mL; Jurkat NucLight Red cells Efficacy (%) [1]: 0%; AU-565 cells IC50 (AU-565 cells; Table 3c): 0.018 µg/mL; BxPC-3 cells IC50 (μg/mL) (BxPC-3 cells): >10^# μg/mL; FaDu cells IC50 (μg/mL) (FaDu cells): >10^# μg/mL
Trastuzumab conjugate DAR8-XJ21 wild-type conjugation |  |  |  | SK-OV-3 cells Efficacy (%) (SK-OV-3 cells; Table 3b): 34%; SK-OV-3 cells IC50 (SK-OV-3 cells; Table 3b): 0.375 µg/mL
Trastuzumab conjugate DAR8-XT41 wild-type conjugation | more active | 0 | >10 | 
Trastuzumab conjugate DAR8-XT54 wild-type conjugation |  | 0 | >10 | 
Trastuzumab conjugate DAR8-XS23 wild-type conjugation |  | 0 | >10 | SK-OV-3 cells IC50 μg/mL (SK-OV-3 cells; Table 3a, # no full dose-response curve): ~1.137^# μg/mL
Trastuzumab conjugate DAR8-XT100 wild-type conjugation |  |  |  | AU-565 cells IC50 (AU-565 cells; Table 3b, $ steep hillslope): 0.024 µg/mL
Trastuzumab conjugate DAR8-XT123 wild-type conjugation | more active |  |  | Jurkat NucLight Red cells IC50 (μg/mL) [1]: >10^# μg/mL; Jurkat NucLight Red cells Efficacy (%) [1]: 4%; AU-565 cells IC50 (AU-565 cells; Table 3c): 0.010 µg/mL; BxPC-3 cells IC50 (μg/mL) (BxPC-3 cells): >10^# μg/mL; FaDu cells IC50 (FaDu cells): 6.639 µg/mL
Trastuzumab conjugate DAR8-XX19 wild-type conjugation | more active |  |  | 
Trastuzumab conjugate DAR8-XT16 wild-type conjugation |  | 0 | >10 | 
